Only a part is listed here, and it is no random draw. Calls of active or inactive are those of the source.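 Rule for the calls: active = superoxide response under a set limit, about three screen SD below normal (cut at about 65% in these data); inactive = the rest.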

A short description of this assay: reduction of superoxide in aged yeast, primary screen, HTS (AID 2690).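 Note: yeast aged for seven days with compound at 30 °C before DHE staining; 100% = average MFI of all compound-treated wells on the plate with controls excluded.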 Particulars: S. cerevisiae aged cells, superoxide DHE fluorescence; at 10 µM; hits give low values.
With `CCC(=O)N(c1ccccc1)C1(COC)CCN(CCn2nnn(CC)c2=O)CC1`, the superoxide response (% of plate mean) was inactive: 106%.
For the molecule `CCC(=O)N(c1ccccc1)C1(COC)CCN(CCc2cccs2)CC1`, the superoxide response (% of plate mean) was inactive: 118%.
